Laboratory results from US8653040B2, “Compositions containing sesamin-class compound(s) and quercetin glycoside(s)” (Suntory Holdings Limited, priority 2007, dated 2014).

Experiment: Blood (plasma) concentration of sesamin and episesamin in rats after oral administration of the mixture of sesamin-class compounds alone or simultaneously with a test substance (LC-MS/MS)
Conditions: Example 3, 10 mg/kg sesamin-class compounds plus 200 μmol/kg test flavonoid glycoside in 0.5% CMC suspension

In the case of αG-hesperidin, the “change of Cmax of sesamin and episesamin when used in combination” value is reported as “decrease”.
